Results published in patent US20060063766A1, “Use of aryl- and heteroaryl-substituted tetrahydroisoquinolines to block reuptake of norepinephrine, dopamine, and serotonin” (priority 2004, published 2006).
Structures can show the parent of a compound that is named as a salt. Where two headings read alike, the source gives them in different places.

Amino acid sequences for entries named in this document (tags omitted).
UniProt P23975, whole entry, looked up: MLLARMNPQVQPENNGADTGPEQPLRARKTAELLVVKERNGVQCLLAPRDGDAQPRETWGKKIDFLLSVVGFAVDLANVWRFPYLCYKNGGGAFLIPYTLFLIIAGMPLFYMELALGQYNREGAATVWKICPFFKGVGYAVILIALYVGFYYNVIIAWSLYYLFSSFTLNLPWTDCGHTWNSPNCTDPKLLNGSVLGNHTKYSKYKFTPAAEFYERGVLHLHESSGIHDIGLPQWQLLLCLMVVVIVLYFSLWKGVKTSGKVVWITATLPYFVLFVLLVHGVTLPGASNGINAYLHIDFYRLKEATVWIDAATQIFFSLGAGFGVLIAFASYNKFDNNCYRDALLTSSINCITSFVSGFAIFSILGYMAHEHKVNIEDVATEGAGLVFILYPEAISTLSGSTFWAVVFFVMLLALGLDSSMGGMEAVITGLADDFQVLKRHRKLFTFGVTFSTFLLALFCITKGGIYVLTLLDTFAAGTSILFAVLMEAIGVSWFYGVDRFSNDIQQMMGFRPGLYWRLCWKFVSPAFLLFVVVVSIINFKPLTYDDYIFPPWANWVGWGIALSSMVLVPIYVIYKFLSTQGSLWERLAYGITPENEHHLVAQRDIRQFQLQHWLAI

Biological target: NET (Homo sapiens, UniProt P23975)
Assay: Primary binding assay, NET binding ([3H] Nisoxetine)
[1] = read-out: Ki, nM NET, Table 2, inhibition of radioligand binding at human transporter

SMILES	Ki [1]	Ki (read-out: NET Ki, Table 1, human transporter in HEK293E cells)
CN1Cc2cc(-c3cccnn3)ccc2C(c2ccc3sccc3c2)C1 (single isomer, unassigned)	1.4 nM	–
Cc1csc(C2CN(C)Cc3ccccc32)c1 (racemic) [4-methyl-thiophen-2-yl, reference compound]	–	488 nM
CN1Cc2cc(CN3CCOCC3)ccc2C(c2cc3ccccc3s2)C1 (single isomer, unassigned) (as salt: maleate)	12.6 nM	–
